These results are taken from ChEMBL document CHEMBL1123143, “Analgesics of the 6,14-ethenomorphinan type. 6-deoxy-7 alpha-orvinols and 6-deoxy-8 alpha-orvinols” (1985).

For this assay, the species on record is Rattus norvegicus. The assay can be described thus: Compound was evaluated for relative analgesic potency in Sprague-Dawley rat.

As for `CN1CC[C@]23c4c5ccc(O)c4O[C@H]2[C@@H](O)C=C[C@H]3[C@H]1C5`, the Relative analgesic potency was 1.
